From patent EP4840863A1, “FLUORINE-CONTAINING PARTHENOLIDE DERIVATIVE, PREPARATION METHOD THEREFOR AND USE THEREOF” (dated 2026)
Values joined by “and” are separate entries in the source; they are usually repeats but may differ in a detail not shown here. Equal entries are not always repeated.

Assay: Distribution of Compound 4 and released Compound 1 in tissues (brain, pancreas, rectum, liver, lung; LC/MS)
Settings: for Concentrations in Lung / Concentrations of Compound 4 in Brain Tissue / Concentrations of Compound 4 in Liver / Concentrations of Compound 4 in Pancreatic Tissue / Concentrations of Compound 4 in the Rectum: iv (10 mg/kg) Compound 4
Protocol: (1) Forty-eight healthy Bar b/c mice, each weighing approximately 20 g, were taken and divided into 3 groups. Blank control group (6 mice), oral gavage administration group (Compound 4 dose: 50 mg/kg, 21 mice), and tail vein injection administration group (Compound 4 dose: 10 mg/kg, 21 mice) (2) For the oral gavage group, blood samples were collected at 5 min, 15 min, 30 min, 1 h, 3 h, 8 h, and 24 h after administration. For the intravenous injection group, blood samples were collected at 2 min, 5 min, 15 min, 30 min, 1 h, 3 h, 8 h, and 24 h after administration. Blood was collected from mice via eyeball removal and placed in anticoagulant tubes containing sodium heparin. The samples were immediately centrifuged at 5000 rpm at low temperature (4°C) for 10 min to obtain plasma samples. The samples were stored in a -80°C freezer for analysis. Three mice were used per time point. (3) The mouse was fixed on a foam board. The skin on the chest was lifted with forceps, and the thoracic skin and ribs were cut open with scissors to expose the heart and liver. The auricle was then cut open. A syringe needle was inserted into the left ventricle of the mouse, and normal saline was perfused for approximately 1 min (10-20 mL) until the mouse's limbs, liver, and tongue turned pale. Brain collection: The skin on the head was cut open to expose the white skull. The cartilage was cut, the skull cap was carefully pried open to expose the white brain, and the entire brain was dissected out. Tissues such as the pancreas, liver, lung, and rectum were also collected. The samples were stored in a -80°C freezer for analysis. (4) The contents of Compound 4 and Compound 1 in peripheral blood and tissues were detected by LC/MS. MS/MS information

[1] = Brain, po (50 mg/kg) Compound 4
[2] = Liver, po (50 mg/kg) Compound 4
[3] = Pancreas, iv (10mg/kg) Compound 4
[4] = Pancreas, po (50 mg/kg) Compound 4
[5] = Rectum, iv (10mg/kg) Compound 4
[6] = Rectum, po (50 mg/kg) Compound 4
[7] = 2 min, individual mice, 10 mg/kg
[8] = 5min, individual mice, 10 mg/kg
[9] = 15min, individual mice, 10 mg/kg
[10] = 30min, individual mice, 10 mg/kg

AUC0-t (Brain, iv (10mg/kg) Compound 4): 791 ng·h/g | Fold (AUCtissue/AUCplasma ) (Brain, iv (10mg/kg) Compound 4): 1.80 | AUC0-t [1]: 1477 ng·h/g | Fold (AUCtissue/AUCplasma ) [1]: 1.49 | AUC0-t (Liver, iv (10mg/kg) Compound 4): 1568 ng·h/g | Fold (AUCtissue/AUCplasma ) (Liver, iv (10mg/kg) Compound 4): 3.58 | AUC0-t [2]: 8430 ng·h/g | Fold (AUCtissue/AUCplasma ) [2]: 8.51 | AUC0-t (Lung, iv (10mg/kg) Compound 4): 933 ng·h/g | Fold (AUCtissue/AUCplasma ) (Lung, iv (10mg/kg) Compound 4): 2.13 | AUC0-t (Lung, po (50 mg/kg) Compound 4): 3193 ng·h/g | Fold (AUCtissue/AUCplasma ) (Lung, po (50 mg/kg) Compound 4): 3.22 | AUC0-t [3]: 2523 ng·h/g | Fold (AUCtissue/AUCplasma ) [3]: 5.76 | AUC0-t [4]: 5925 ng·h/g | Fold (AUCtissue/AUCplasma ) [4]: 5.98 | AUC0-t [5]: 2297 ng·h/g | Fold (AUCtissue/AUCplasma ) [5]: 5.24 | AUC0-t [6]: 7281 ng·h/g | Fold (AUCtissue/AUCplasma ) [6]: 7.35 | Concentrations in Lung (2 min, Mean): 2525 ng/g | Concentrations of Compound 4 in Brain Tissue (2 min, Mean): 2020 ng/g | Concentrations of Compound 4 in Liver (2 min, Mean): 3607 ng/g | Concentrations of Compound 4 in Pancreatic Tissue (2 min, Mean): 6657 ng/g | Concentrations of Compound 4 in the Rectum (2 min, Mean): 2883 ng/g | Concentrations of Compound 4 in Brain Tissue [7]: 2150 ng/g and 1700 ng/g and 2210 ng/g | Concentrations of Compound 4 in Liver [7]: 4470 ng/g and 3830 ng/g and 2520 ng/g | Concentrations of Compound 4 in Pancreatic Tissue [7]: 6130 ng/g and 8060 ng/g and 5780 ng/g | Concentrations of Compound 4 in the Rectum [7]: 3110 ng/g and 3090 ng/g and 2450 ng/g | Concentrations in Lung (5min, Mean): 2374 ng/g | Concentrations of Compound 4 in Brain Tissue (5min, Mean): 1135 ng/g | Concentrations of Compound 4 in Liver (5min, Mean): 3493 ng/g | Concentrations of Compound 4 in Pancreatic Tissue (5min, Mean): 4553 ng/g | Concentrations of Compound 4 in the Rectum (5min, Mean): 4157 ng/g | Concentrations of Compound 4 in Liver [8]: 3140 ng/g and 2940 ng/g and 4400 ng/g | Concentrations of Compound 4 in Pancreatic Tissue [8]: 3920 ng/g and 3480 ng/g and 6260 ng/g | Concentrations of Compound 4 in the Rectum [8]: 4450 ng/g and 4120 ng/g and 3900 ng/g | Concentrations in Lung (15min, Mean): 841 ng/g | Concentrations of Compound 4 in Brain Tissue (15min, Mean): 859 ng/g | Concentrations of Compound 4 in Liver (15min, Mean): 1403 ng/g | Concentrations of Compound 4 in Pancreatic Tissue (15min, Mean): 2130 ng/g | Concentrations of Compound 4 in the Rectum (15min, Mean): 1780 ng/g | Concentrations in Lung [9]: 564 ng/g and 1460 ng/g and 498 ng/g | Concentrations of Compound 4 in Liver [9]: 1110 ng/g and 1470 ng/g and 1630 ng/g | Concentrations of Compound 4 in Pancreatic Tissue [9]: 1730 ng/g and 2320 ng/g and 2340 ng/g | Concentrations of Compound 4 in the Rectum [9]: 1660 ng/g and 2060 ng/g and 1620 ng/g | Concentrations in Lung (30min, Mean): 488 ng/g | Concentrations of Compound 4 in Brain Tissue (30min, Mean): 90.0 ng/g | Concentrations of Compound 4 in Liver (30min, Mean): 789 ng/g | Concentrations of Compound 4 in Pancreatic Tissue (30min, Mean): 1376 ng/g | Concentrations of Compound 4 in the Rectum (30min, Mean): 1841 ng/g | Concentrations in Lung [10]: 532 ng/g and 475 ng/g and 456 ng/g | Concentrations of Compound 4 in Brain Tissue [10]: 81.1 ng/g and 65.8 ng/g and 123 ng/g | Concentrations of Compound 4 in Liver [10]: 636 ng/g and 932 ng/g and 798 ng/g | Concentrations of Compound 4 in Pancreatic Tissue [10]: 938 ng/g and 1440 ng/g and 1750 ng/g | Concentrations in Lung (1h, Mean): 122 ng/g | Concentrations of Compound 4 in Brain Tissue (1h, Mean): 253 ng/g | Concentrations of Compound 4 in Liver (1h, Mean): 284 ng/g | Concentrations of Compound 4 in Pancreatic Tissue (1h, Mean): 489 ng/g
Compound: CN(C)CC1C(=O)OC2C1CCC(CC(F)(F)F)=CCCC1(C)OC21 (centres unmarked) [Compound 4]
